From US7842682B2, “Boronated metal-phthalocyanines, process for their preparation, pharmaceutical compositions comprising them and use thereof” (L. Molteni & C. Dei Fratelli Alitti, priority 2003, dated 2010)

Assay: Pharmacokinetics and tissue distribution in B16-F1 pigmented melanoma bearing mice
Format: in vivo, C57/BL6 mice
Conditions: tumour versus skin
Experimental: (§1) FIG. 4: Time-dependence of boronated phthalocyanine (B4Pc) recovery from plasma and selected tissues of B16-F1 pigmented melanoma bearing C57/BL6 mice (4A) as well as from tumour and skin (4B), after intravenous administration of 0.75 mg/Kg of boronated phthalocyanine according to Example 21 as DPPC liposomal preparation.
as §1, with “5:” for “4:”, “(5A),” for “(4A)”, “(5B)” for “(4B),”, “iv” for “intravenous”, “3.0” for “0.75”, “DOPC” for “DPPC”
Through pharmacokinetic experiments on B16-F1 pigmented melanoma bearing mice, a number of studies such as tissue affinity, uptake kinetics on various organs, clearance from the body and selectivity for the tumour tissues have been evaluated, using the product described in Example 21. Toward this aim, once tumours had reached the volumes of […], the boronated phthalocyanine as DPPC liposomal preparation (0.75 mg/kg) or as a DOPC liposomal preparation (3 mg/kg) was systemically administered. […]

Substance: 1,8(11),15(18),22(25)-tetrakis-{[4-(^11B-o-carboran-1-yl)methyl]phenoxy}-phthalocyaninate zinc(II) [Example 21]
- selectivity of localization in the tumour: acceptable
